Reference: patent US20070172469A1, “Methods For Inhibiting Viral Replication In Vivo” (priority 2002, published 2007)

Tested on: AVA5 cells
Assay: Toxicity in AVA5 cells, neutral red dye uptake
Conditions: 3 days

alpha interferon
CC50: >10000 IU/ml
